# In US20100056637A1, “TREATMENT METHODS USING TRIARYL METHANE COMPOUNDS” (Icagen, Inc., priority 2005, published 2010):
# What was measured:
# KCa3.1 [1] = target: T1, KCa3.1 (Homo sapiens, UniProt O15554); experiment: Whole patch clamp of potassium currents in CHO cells stably expressing recombinant human KCa3.1; format: cell-based; settings: currents stimulated by intracellular Ca2+ 1 μM, read-out: IC50, inhibition of KCa3.1 K+ channels
# KCa3.1 [2] = target: T1, KCa3.1; experiment: Whole patch clamp of KCa3.1 currents in isolated human lung mast cells (activated by EBIO); format: cell-based; settings: currents activated by EBIO 100 μM, read-out: IC50, inhibition of KCa3.1 K+ channels
structure (smiles),measurement,setting,value
"NC(=O)C(c1ccccc1)(c1ccc(F)cc1)c1ccc(F)cc1 [Senicapoc, 2,2-bis(4-fluorophenyl)-2-phenylacetamide]",IC50,KCa3.1 [1],~6 nM
same,IC50,KCa3.1 [2],~6 nM
